Experimental findings from PubChem BioAssay AID1861 (The Scripps Research Institute Molecular Screening Center, 2009) are described below.

Protein sequences, listed by entry. Tags and fused reporters are not part of them. Lines headed by an entry give the natural chain unless they say otherwise; changes in a name come on top.
UniProt P48145: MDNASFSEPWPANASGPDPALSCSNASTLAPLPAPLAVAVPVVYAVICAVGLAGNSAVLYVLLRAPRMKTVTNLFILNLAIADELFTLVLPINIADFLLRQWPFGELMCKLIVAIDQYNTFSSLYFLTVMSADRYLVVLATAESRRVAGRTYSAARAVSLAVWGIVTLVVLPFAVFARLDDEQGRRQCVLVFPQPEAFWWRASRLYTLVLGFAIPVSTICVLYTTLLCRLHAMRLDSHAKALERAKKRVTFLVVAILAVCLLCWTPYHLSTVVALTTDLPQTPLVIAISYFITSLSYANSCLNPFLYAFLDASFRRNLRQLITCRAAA

This is a selection; strong and weak results do not stand in their true shares. Calls of active or inactive are those of the source. Rule as the data show it: active = inhibition above about 16% (passing the limit was not always enough); inactive = the rest.

The target in the test is Neuropeptides B/W receptor type 1 (Homo sapiens) (UniProt P48145). Briefly: GPR7 receptor antagonists, primary screen, cell-based, fluorescence, single concentration (AID 1861).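 Also: cells stimulated with the agonist NPW; 0% = agonist with vehicle and 100% = vehicle without agonist.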 The conditions noted are these: GPR7-expressing cells, fluorescence antagonist assay; at 4.4 µM; stronger effect = higher value.
Broadly, the inhibition is the change of the read-out against control, counted positive when it falls. With `COc1cc(I)ccc1[As](=O)(O)O`, the inhibition was inactive: -16.2%.

Take `COc1ccc2nc(NP(=O)(c3ccccc3)c3ccccc3)sc2c1`: the inhibition was inactive: 2.34%.

Regarding `Cc1c2c(nc3ccccc13)SC(C(Cl)Cl)C2` (stereo unspecified), the inhibition was inactive: -17.6%.

Consider `Cc1cc(=O)[nH]c(N[N+](=O)[O-])n1`, for which the inhibition was inactive: -2.41%.

Turning to `O=C(OC1CN2CCC1CC2)C12CC3CC(CC(C3)C1)C2` (stereo unspecified), the inhibition was inactive: 3.88%.

With `COc1ccc(N/C(=N/P(=O)(N2CCOCC2)N2CCOCC2)N2CCOCC2)cc1`, the inhibition is inactive: -7.95%.

As for `Cc1ccc(OP(=O)(Nc2ccc([N+](=O)[O-])cn2)Oc2ccc(C)cc2)cc1`, the inhibition is inactive: -11.3%.

As for `Cc1ccc2nc3c(c(C)c2c1)CC(C(Cl)Cl)S3` (stereo unspecified), the inhibition was inactive: -9.68%.

Take `C[As](=O)(O)c1cccc(C(=O)O)c1`: the inhibition was inactive: -8.37%.

Turning to `O=[As](O)(c1ccc(O)cc1)c1ccccc1O`, the inhibition is inactive: -13.9%.

Take `O=[N+]([O-])c1cc([N+](=O)[O-])c(-c2ccn[nH]2)s1`: the inhibition was inactive: -3.51%.

`CCN(CC)C(=S)SC(NC=O)C(Cl)(Cl)Cl` (stereo unspecified): the inhibition is inactive: 6.2%.

For the compound `CC(C)NC(=O)NP(=O)(Oc1ccccc1)Oc1ccccc1`, the inhibition is inactive: -8.43%.

Turning to `ClCCSc1nnc(-c2cccnc2)o1`, the inhibition is inactive: -2.48%.

In the case of `CC(C)c1ccc(OP(=O)(Nc2ccccn2)Oc2ccccc2F)cc1` (stereo unspecified), the inhibition is inactive: -9.15%.

Turning to `Cc1cc(SC(NC(=O)c2ccccc2)C(Cl)(Cl)Cl)nc(C(C)C)n1` (stereo unspecified), the inhibition is inactive: -5.85%.

`CCCCOc1ccc(C(=O)NCC2(N3CCCCC3)CCCCC2)cc1OC`: the inhibition is inactive: -8.24%.

As for `CCOC(=O)Nc1ccc([As](=O)(O)O)c(O)c1`, the inhibition was inactive: -9.09%.

As to `O=P(Nc1ccccn1)(c1cccc2ccccc12)c1cccc2ccccc12`, the inhibition is inactive: 2.65%.

Turning to `Cc1cc(SC(NC=O)C(Cl)(Cl)Cl)ncn1` (stereo unspecified), the inhibition was inactive: 0.49%.

For the compound `O=[N+]([O-])c1ccc(Nc2ccc(Oc3ccc([N+](=O)[O-])cc3[N+](=O)[O-])cc2)c([N+](=O)[O-])c1`, the inhibition was inactive: -13.6%.

For the compound `CCOC(=O)Nc1cccc([As](=O)(O)O)c1`, the inhibition was inactive: -6.91%.

Turning to `O=C(Nc1ccncc1[N+](=O)[O-])c1ccc([N+](=O)[O-])cc1[N+](=O)[O-]`, the inhibition was inactive: -8.32%.

Regarding `O=C(COc1ccccc1)OC1CN2CCC1CC2` (stereo unspecified), the inhibition was inactive: -3.16%.

Consider `COP1(=S)c2c(C)nn(CCC#N)c2N=C(c2ccc(F)cc2)N1C` (stereo unspecified), for which the inhibition was inactive: -2.6%.

`CCC(C)N(CC(C)C)C(=S)SC(NC(C)=O)C(Cl)(Cl)Cl` (stereo unspecified): the inhibition is inactive: -10.2%.

On to `O=C(OC1CN2CCC1CC2)c1cccc([N+](=O)[O-])c1` (stereo unspecified), for which the inhibition is inactive: -1.67%.

On to `CCOC(=O)c1ccc(NC(=O)C(C)(CCl)SC)cc1` (stereo unspecified), for which the inhibition was inactive: -8.48%.

For the compound `CC(C)(C)C(=O)NC(Sc1ncccn1)C(Cl)(Cl)Cl` (stereo unspecified), the inhibition is inactive: -6.75%.

For `Clc1n[nH]nc1-c1nn[nH][15n]1`, the inhibition was inactive: -9.8%.

As for `CCOP(=O)(NC(=NC(C)c1ccccc1)NC(C)c1ccccc1)OCC` (stereo unspecified), the inhibition was inactive: 4.85%.

`O=P1(Nc2ccccn2)COc2ccccc2OC1`: the inhibition is inactive: -8.17%.

`CCC1=CC2Cc3nc4ccc(Cl)cc4c(N)c3C(C1)C2` (stereo unspecified): the inhibition is inactive: 8.19%.

For the compound `CCOP(=O)(Nc1ccc(C)cn1)OCC`, the inhibition is inactive: -8.83%.

`CC(C)/C=N\N=C(\N)N[N+](=O)[O-]`: the inhibition was inactive: -7.42%.

With `CC1(CBr)Cn2c(nc3ccccc3c2=O)S1` (stereo unspecified), the inhibition is inactive: -9.32%.

In the case of `O=[As](O)(c1ccccc1Br)c1ccccc1Br`, the inhibition was inactive: -2.68%.

For `CN(C)C1(CNC(=O)c2ccc(S(C)(=O)=O)cc2)CCCCC1`, the inhibition was inactive: 7.95%.

In the case of `O=C(/C=C/c1ccccc1)OC1CN2CCC1CC2` (stereo unspecified), the inhibition is inactive: -2.21%.

Regarding `CC1CCC(C(C)C)C(OP(=O)(Nc2ccccn2)c2ccccc2)C1` (stereo unspecified), the inhibition was inactive: -7.97%.

Consider `Cc1ccc(C(=O)OC2CN3CCC2CC3)cc1` (stereo unspecified), for which the inhibition is inactive: -12.8%.

Take `Cc1nn(-c2ccccc2)c2c1P(=O)(N1CCOCC1)N(C)C(c1ccccc1)=N2` (stereo unspecified): the inhibition was inactive: -7.13%.

Consider `Nc1cccc([As](=O)(O)c2ccccc2)c1`, for which the inhibition was inactive: -5.81%.

For `O=P1(Nc2ccc(Br)cn2)COc2ccccc2OC1`, the inhibition is inactive: -3.53%.

Consider `Cc1ccc(OCC(=O)OC2CN3CCC2CC3)cc1` (stereo unspecified), for which the inhibition is inactive: 0.51%.

For the compound `O=[As](O)(c1cccs1)c1cccs1`, the inhibition was inactive: -3.72%.

For the compound `O=P1(Nc2ncccn2)COc2ccccc2OC1`, the inhibition is inactive: -8.57%.

For the compound `Nc1ccccc1[As](=O)(O)c1ccccc1`, the inhibition was inactive: -11.4%.

As to `O=C(O)COc1ccc([As](=O)(O)O)cc1[N+](=O)[O-]`, the inhibition was inactive: 3.6%.

Turning to `O=P(Nc1nccs1)(c1ccccc1)c1nc2ccccc2s1` (stereo unspecified), the inhibition is inactive: -6.27%.

On to `O=P(Nc1nccs1)(Oc1ccccc1)Oc1ccccc1`, for which the inhibition is inactive: -16%.

In the case of `CCOP1(=S)c2c(C)nn(CCC#N)c2N=C(c2ccccc2F)N1C` (stereo unspecified), the inhibition is inactive: 4.59%.

As to `CS(=O)(=O)c1cc([N+](=O)[O-])c2no[n+]([O-])c2c1`, the inhibition is inactive: -9.73%.

As to `CCOP1(=S)c2c(C)nn(CCC#N)c2N=C(c2ccc(F)cc2)N1C` (stereo unspecified), the inhibition was inactive: 1.47%.

As for `O=[N+]([O-])c1ccc2c(c1)nnn2O`, the inhibition was inactive: -4.72%.

On to `O=[As](O)(c1cccc(O)c1)c1cccc(O)c1`, for which the inhibition was inactive: -6.35%.

As to `Cc1cccc(OCC(=O)OC2CN3CCC2CC3)c1` (stereo unspecified), the inhibition is inactive: -11.2%.

On to `O=C(OC1CN2CCC1CC2)c1ccc(Cl)cc1` (stereo unspecified), for which the inhibition is inactive: -8.81%.

Consider `CS(=O)(=O)c1ccc(Cl)c(NC(=O)COC(=O)C(O)(c2ccccc2)c2ccccc2)c1`, for which the inhibition is inactive: -9.94%.

Consider `COc1cc(C(=O)NCC2(N3CCOCC3)CCCCC2)cc(Cl)c1OC(C)C`, for which the inhibition is inactive: -12.1%.

`O=[As](O)(O)c1cccnc1`: the inhibition is inactive: -13.2%.

For the compound `CCOP(=O)(Nc1cccc2ccccc12)OCC`, the inhibition is inactive: 3.45%.

As to `COc1cc(C2NCCC3(OCCO3)C2(C)C)cc(OC)c1OC` (stereo unspecified), the inhibition was inactive: -10%.

On to `Cc1ccc(NCCc2c([N+](=O)[O-])cc([N+](=O)[O-])cc2[N+](=O)[O-])cc1`, for which the inhibition is inactive: -6.45%.

For the compound `Nc1cccc2c([As](=O)(O)O)cccc12`, the inhibition was inactive: -7.3%.

Turning to `CCCOP(=S)(Nc1nc(N)cc(=O)[nH]1)OCCC`, the inhibition was inactive: -8.19%.
